Results on 2 substances are retold here after publication PMC8406001.

In assay [1] the target is K35N transthyretin (UniProt P02766). In words: SEC; size-exclusion chromatography at 2.0 M Gdm.HCl (pretransition region).
Assay [2] shares this target. The assay can be described thus: AUC; sedimentation velocity, 15 uM TTR, after 96 h in 50 mM sodium phosphate (pH 7.4 in the tables, pH 7.0 in the methods), 0.1 M KCl, […] urea; 25 C, 48,000 rpm; tetramer, monomer and higher-order oligomers.
Assay [3] has the same target. In words: AUC; sedimentation velocity, 5 uM TTR tetramer, after 96 h in 50 mM sodium phosphate (pH 7.4 in the tables, pH 7.0 in the methods), 0.1 M KCl, […] urea; 25 C, 48,000 rpm; tetramer, monomer and higher-order oligomers.
The target of assay [4] is K35T transthyretin (UniProt P02766). The assay can be described thus: SEC; size-exclusion chromatography at 2.0 M Gdm.HCl (pretransition region). Background: SEC sorts molecules by how far they enter the pores of the column.
Assay [5] shares this target. In words: AUC; sedimentation velocity, 15 uM TTR, after 96 h in 50 mM sodium phosphate (pH 7.4 in the tables, pH 7.0 in the methods), 0.1 M KCl, […] urea; 25 C, 48,000 rpm; tetramer, monomer and higher-order oligomers.
For assay [6] the target is unchanged. In words: AUC; sedimentation velocity, 5 uM TTR tetramer, after 96 h in 50 mM sodium phosphate (pH 7.4 in the tables, pH 7.0 in the methods), 0.1 M KCl, […] urea; 25 C, 48,000 rpm; tetramer, monomer and higher-order oligomers.

The stoichiometry N is a count of units in the complex or per binding partner. Substance “K35N transthyretin (from UniProt P02766 21-127) (natural protein)” displayed a stoichiometry N with K35N transthyretin [1] of 4. In the assay with K35N transthyretin [2], the percent higher-order oligomers is 27.1%, the percent monomer turned out to be 9.2%, the percent tetramer was 63.7% and the stoichiometry N came out at 4. In the assay with K35N transthyretin [3], this substance had a percent higher-order oligomers of 26.2%, a percent monomer of 15.9%, a percent tetramer of 57.9% and a stoichiometry N of 4.

Consider “K35T transthyretin (from UniProt P02766 21-127) (natural protein)”, for which, in the assay with K35T transthyretin [4], the stoichiometry N turned out to be 4. Further, in the assay with K35T transthyretin [5], the percent higher-order oligomers came out at 41.8%, the percent monomer was 12.2%, the percent tetramer came out at 46% and the stoichiometry N is 4. Moreover, in the assay with K35T transthyretin [6], the percent higher-order oligomers is 36.2%, the percent monomer came out at 20.1%, the percent tetramer is 43.7% and the stoichiometry N stood at 4.
